Measured values published in ChEMBL document CHEMBL3232937.

Amino acid sequences for entries named in this document (tags omitted). A change or cut given only in a name is not applied to a line headed by its entry.
UniProt P48730: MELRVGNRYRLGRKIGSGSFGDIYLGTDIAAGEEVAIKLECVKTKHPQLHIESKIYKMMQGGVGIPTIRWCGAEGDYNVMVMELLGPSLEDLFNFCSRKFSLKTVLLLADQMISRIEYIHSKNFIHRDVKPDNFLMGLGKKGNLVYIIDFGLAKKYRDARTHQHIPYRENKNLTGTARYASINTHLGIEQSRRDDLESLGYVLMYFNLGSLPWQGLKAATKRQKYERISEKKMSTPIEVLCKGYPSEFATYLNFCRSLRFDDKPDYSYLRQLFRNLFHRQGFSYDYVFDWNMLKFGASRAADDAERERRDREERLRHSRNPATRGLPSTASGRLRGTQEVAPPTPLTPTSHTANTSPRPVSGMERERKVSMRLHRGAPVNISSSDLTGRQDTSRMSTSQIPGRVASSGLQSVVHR

biological target: Casein kinase I isoform delta (Homo sapiens, UniProt P48730); settings: at 10 µM
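Further: recombinant enzyme with casein substrate, activity read by Kinase-Glo luminescence after 60 min, inhibition expressed relative to untreated control.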

inhibition [%] | Structure (SMILES)
20 | O=C(Cc1cccc(Cl)c1)Nc1ncccn1
25 | COc1ccccc1C(=O)Nc1nc2ccc(C(F)(F)F)cc2s1
20 | O=C(Cc1ccc(Cl)cc1)Oc1nc2ccccc2s1
31 | Cn1c(NC(=O)Cc2ccc(Cl)cc2)nc2ccccc21
20 | O=C(Cc1cccc(Cl)c1)Nc1nc2c(Cl)cccc2s1
20 | Cc1cccc2sc(NC(=O)Cc3cccc(Cl)c3)nc12
27 | Cn1c(NC(=O)Cc2cccc(Cl)c2)nc2ccccc21
24 | COc1ccccc1CC(=O)Nc1nc2ccccc2o1
25 | COc1ccccc1CCNc1nc2ccc(C(F)(F)F)cc2s1
